According to paper PMC6499816 (2019):

Target: LC3B (recombinant, BLI) (human, UniProt Q9GZQ8 1-120)
Assay: BLI

For NISQKSDEEDFVIVEDLPLKLTIY (biotin (position not given)) [PCM1 K1957I LIR peptide (BLI)], the Kd was 10.3 µM.
